Amino acid sequences for entries named in this document (tags omitted).
UniProt Q01959, whole entry: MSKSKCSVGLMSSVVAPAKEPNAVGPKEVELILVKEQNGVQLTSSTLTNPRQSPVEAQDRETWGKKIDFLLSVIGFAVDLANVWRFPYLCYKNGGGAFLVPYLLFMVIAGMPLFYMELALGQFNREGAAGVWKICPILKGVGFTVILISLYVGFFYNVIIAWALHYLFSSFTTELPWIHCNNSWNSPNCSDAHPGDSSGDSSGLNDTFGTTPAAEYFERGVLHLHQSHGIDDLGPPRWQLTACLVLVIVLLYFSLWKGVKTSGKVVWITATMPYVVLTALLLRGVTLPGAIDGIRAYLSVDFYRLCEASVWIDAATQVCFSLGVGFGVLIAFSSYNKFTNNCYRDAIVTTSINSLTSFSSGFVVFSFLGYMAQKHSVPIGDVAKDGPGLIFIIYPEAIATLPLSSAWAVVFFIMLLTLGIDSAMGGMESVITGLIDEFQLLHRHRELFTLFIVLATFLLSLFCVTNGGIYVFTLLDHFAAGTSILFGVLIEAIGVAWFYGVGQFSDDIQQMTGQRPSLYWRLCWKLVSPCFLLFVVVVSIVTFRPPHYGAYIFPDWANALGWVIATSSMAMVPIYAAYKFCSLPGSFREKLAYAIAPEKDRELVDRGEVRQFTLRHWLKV

According to PMC5741089 (Current protocols in pharmacology, 2017):

Target: hDAT (Homo sapiens, UniProt Q01959)
Details: 10 min, 37°C, pH 7.4; cells preloaded with 25 nM [3H]-DA

## CC(N)Cc1ccccc1 (stereo not shown) [amphetamine]
  % efflux at 20 μM: 57%
